{"source": "PubChem BioAssay AID431", "about": "(Sanford-Burnham Center for Chemical Genomics, 2006)", "note": "This is a selection; strong and weak results do not stand in their true shares. Entries with a potency or affinity are not part of this list. The source made the active and inactive calls.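 Rule for the calls: active = compounds whose percent cytotoxicity in the single-dose primary screen, scaled between solvent and toxic-drug controls, exceeds 50; inactive = the rest.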", "data": [{"assay": "viability loss of HPDE-C7K cells – cell-based, fluorescence, HTS, primary screen (AID 431);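 note: 0% = DMSO solvent wells and 100% = doxorubicin-treated wells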", "conditions": "HPDE-C7K KRASV12 cells, Alamar Blue viability, 48 h; at 10 µM; stronger effect = higher value", "values": [{"smiles": "Cc1c2non([O-])c-2c(C)[n+](=O)[n+]1[O-]", "cytotoxicity": "inactive: -9.4%"}, {"smiles": "O=C(OC1CN2CCC1CC2)c1cccc(Cl)c1", "note": "(stereo not drawn)", "cytotoxicity": "inactive: -7.3%"}, {"smiles": "c1nnnn1CCn1cnnn1", "cytotoxicity": "inactive: -34.3%"}, {"smiles": "O=P(Nc1nccs1)(c1ccccc1)c1ccccc1", "cytotoxicity": "inactive: 9.7%"}, {"smiles": "O=P1(Nc2nc3ccc(Cl)cc3s2)COc2ccccc2O1", "note": "(stereo not drawn)", "cytotoxicity": "inactive: -22.5%"}, {"smiles": "COC(=O)c1cc2c(s1)N=C(c1ccccc1)N(C)P2(=O)N1CCOCC1", "note": "(stereo not drawn)", "cytotoxicity": "inactive: 0.2%"}, {"smiles": "CCOP1(=S)c2c(C)nn(CCC#N)c2N=C(c2ccccc2F)N1C", "note": "(stereo not drawn)", "cytotoxicity": "inactive: -5.7%"}, {"smiles": "O=P(Nc1nccs1)(c1ccccc1)c1nc2ccccc2s1", "note": "(stereo not drawn)", "cytotoxicity": "inactive: -9.7%"}, {"smiles": "CCOP1(=S)c2c(C)nn(CCC#N)c2N=C(c2ccc(F)cc2)N1C", "note": "(stereo not drawn)", "cytotoxicity": "inactive: -6.4%"}, {"smiles": "Cc1cccc(OCC(=O)OC2CN3CCC2CC3)c1", "note": "(stereo not drawn)", "cytotoxicity": "inactive: 3.5%"}, {"smiles": "Clc1n[nH]nc1-c1nn[nH][15n]1", "cytotoxicity": "inactive: -0.2%"}, {"smiles": "O=P1(Nc2ccccn2)COc2ccccc2OC1", "cytotoxicity": "inactive: -3.9%"}, {"smiles": "Cc1nn(-c2ccccc2)c2c1P(=O)(N1CCOCC1)N(C)C(c1ccccc1)=N2", "note": "(stereo not drawn)", "cytotoxicity": "inactive: -0.5%"}, {"smiles": "O=P1(Nc2ccc(Br)cn2)COc2ccccc2OC1", "cytotoxicity": "inactive: -25.3%"}, {"smiles": "Cc1ccc(OCC(=O)OC2CN3CCC2CC3)cc1", "note": "(stereo not drawn)", "cytotoxicity": "inactive: -18.4%"}, {"smiles": "O=P1(Nc2ncccn2)COc2ccccc2OC1", "cytotoxicity": "inactive: -6.1%"}, {"smiles": "O=C(COc1ccccc1)OC1CN2CCC1CC2", "note": "(stereo not drawn)", "cytotoxicity": "inactive: -5.9%"}, {"smiles": "COP1(=S)c2c(C)nn(CCC#N)c2N=C(c2ccc(F)cc2)N1C", "note": "(stereo not drawn)", "cytotoxicity": "inactive: -2.2%"}]}]}
